Target: Hepatocyte growth factor receptor (Homo sapiens, UniProt P08581)
Experiment: Binding affinity to human MET by KINOMEscan scanMAX assay

Protein sequences, listed by entry. Tags and fused reporters are not part of them. Lines headed by an entry give the natural chain unless they say otherwise; changes in a name come on top.
UniProt P08581: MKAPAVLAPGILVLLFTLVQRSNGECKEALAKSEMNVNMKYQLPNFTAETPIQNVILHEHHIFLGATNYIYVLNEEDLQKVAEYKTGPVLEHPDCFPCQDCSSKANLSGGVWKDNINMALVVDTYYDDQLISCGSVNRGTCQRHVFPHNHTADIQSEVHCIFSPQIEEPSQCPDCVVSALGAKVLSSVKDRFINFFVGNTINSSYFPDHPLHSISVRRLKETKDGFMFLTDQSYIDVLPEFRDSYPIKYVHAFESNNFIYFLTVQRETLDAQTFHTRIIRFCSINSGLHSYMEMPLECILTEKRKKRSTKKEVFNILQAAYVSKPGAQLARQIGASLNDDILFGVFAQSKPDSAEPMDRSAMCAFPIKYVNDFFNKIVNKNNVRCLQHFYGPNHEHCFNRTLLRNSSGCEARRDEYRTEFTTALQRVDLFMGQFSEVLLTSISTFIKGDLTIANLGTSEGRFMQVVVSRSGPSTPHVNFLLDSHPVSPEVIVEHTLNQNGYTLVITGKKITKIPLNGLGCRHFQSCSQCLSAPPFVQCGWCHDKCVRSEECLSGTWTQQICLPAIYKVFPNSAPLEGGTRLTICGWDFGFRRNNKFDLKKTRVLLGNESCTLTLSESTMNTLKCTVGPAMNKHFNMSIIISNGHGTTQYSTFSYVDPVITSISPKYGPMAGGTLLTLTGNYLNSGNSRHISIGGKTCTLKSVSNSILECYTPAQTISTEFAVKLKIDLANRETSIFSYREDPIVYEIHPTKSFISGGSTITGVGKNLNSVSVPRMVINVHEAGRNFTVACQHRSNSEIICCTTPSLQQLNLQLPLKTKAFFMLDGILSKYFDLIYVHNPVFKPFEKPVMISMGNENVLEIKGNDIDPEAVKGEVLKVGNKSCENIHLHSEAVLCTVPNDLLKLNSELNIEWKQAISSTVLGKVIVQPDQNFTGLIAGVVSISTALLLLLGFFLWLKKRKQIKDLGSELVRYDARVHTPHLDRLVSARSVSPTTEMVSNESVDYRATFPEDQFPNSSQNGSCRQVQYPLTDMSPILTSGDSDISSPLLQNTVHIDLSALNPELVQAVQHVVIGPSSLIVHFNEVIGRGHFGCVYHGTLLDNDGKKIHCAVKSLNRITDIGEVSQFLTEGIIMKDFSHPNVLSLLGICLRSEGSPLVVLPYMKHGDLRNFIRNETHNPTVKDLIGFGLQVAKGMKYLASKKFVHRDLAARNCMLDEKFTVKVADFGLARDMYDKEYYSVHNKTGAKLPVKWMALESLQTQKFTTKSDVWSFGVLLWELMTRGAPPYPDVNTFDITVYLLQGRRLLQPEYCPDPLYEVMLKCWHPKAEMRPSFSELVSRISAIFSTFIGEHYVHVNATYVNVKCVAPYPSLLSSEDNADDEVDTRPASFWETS

- Kd: 800 nM
Compound: O=C(NCCCN1CCOC1=O)c1cnc(NCc2cc(Cl)ccc2Cl)nc1NC1CCCC1

— ChEMBL document CHEMBL4828765, “Design and Development of a Chemical Probe for Pseudokinase Ca2+/calmodulin-Dependent Ser/Thr Kinase” (J Med Chem, 2021)
